High-throughput results: PubChem, Broad Institute
Most compounds without a hit are left out; they make up all but 1.3% or so of the library.
CFTR F508del cor: F508del CFTR correction, initial screen, CFBE line, single point | CFBE cells, YFP halide quenching; stimulated with forskolin plus potentiator P3; % fluorescence drop versus neutral controls | activity (quench increase), % at 7.58 µM | actives 0.36% (n = 350,000) | AID 720511, 2013;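 active = mean added fluorescence quench of at least 8% versus neutral control, with both replicates also reaching 8%; inconclusive = only one of the mean or replicate conditions met; inactive = mean below 8% and not both replicates reaching 8%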;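 also: cells transiently co-express mutant CFTR-F508del with the halide-sensitive YFP; corrector assay measuring rescue of mutant channel to the surface after 24 h compound exposure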
Yeast UUG start: alters start codon recognition fidelity in yeast | S. cerevisiae UUG-firefly luciferase reporter, luminescence/redox ratio | activity score, % at 18.7 µM | hit rate 0.13% among 350,000 | AID 602363;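 active means replicate mean at a twofold rise or more, about +100% in these data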;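 further: firefly luciferase made from a UUG start codon reports start codon fidelity; reporter light over untreated wells divided by growth signal over untreated wells; some hits fall short of that in this replicate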
PglD DTNB: C. jejuni PglD acetyltransferase inhibitors, primary screen, biochemical, DTNB colorimetric, single point. purified PglD enzyme, DTNB colorimetric CoA detection. actives 0.098% (n = 360,000). inhibition, % at 12.5 µM. UDP-N-acetylbacillosamine N-acetyltransferase PglD (Campylobacter jejuni); in the data active = inhibition above about 16%, passing the limit was not always enough; inconclusive = no clear call, values can overlap the other calls
miR-122 sensor: miR-122 Renilla sensor signal increase in Huh7, primary screen, miR-122 inhibitor project, cell-based, single point, plate reader. Huh7 miR-122 Renilla luciferase sensor, 48 h; neutral wells = 0, positive control = 100. activation (reporter increase), % at 12.5 µM. actives 0.3% (n = 340,000). AID 602342, 2012;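 active = mean replicate activation score at least 90 and every replicate individually at or above 90; inconclusive = only one of the two criteria met; inactive = neither criterion met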;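 also: higher luciferase means less miR-122 activity so hits act as miR-122 inhibitors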
LGR2 antag: inhibitors of bursicon-induced LGR2 CRE-luciferase signal, primary screen, cell-based, HEK293, CRE-luciferase reporter, bursicon stimulation. inhibition, % at 9.99 µM. bursicon-stimulated, 4 h. Drosophila bursicon receptor LGR2 (rickets). actives 0.35% (n = 380,000);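 active = drop in luminescence signal, shown as inhibition above about 50% in the replicate tests, limit read from the data, passing the limit was not always enough; inconclusive = probably only some replicates passing the limit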;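 also: agonist challenge used bursicon conditioned medium at about half maximal strength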
EWS-Fli inh: EWS/Fli-driven NR0B1 reporter inhibitors, primary screen, A673 cells, NR0B1 luciferase, luminescence, MLPCN library. viability-normalised. inhibition, % at 12.6 µM. actives 0.67% (n = 350,000);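 active = mean inhibition of at least 50% after viability correction, with every replicate also passing that limit; inconclusive = mean reaches 50% but only one of two replicates passes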;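 also: firefly luciferase signal divided by Alamar Blue viability fluorescence both relative to DMSO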
Starred values were filed as active, the others as inactive; ? = inconclusive; · = no result; [ ] = remark or other dose.

Labels used below: A = CFTR F508del cor; B = Yeast UUG start; C = PglD DTNB; D = miR-122 sensor; E = LGR2 antag; F = EWS-Fli inh
1: O=C(Cn1ncc(Cl)c(Cl)c1=O)N1CCc2ccccc21
  A = -5	B = ·	C = ·	D = ·	E = 70*	F = 54*

2: C=CCc1ccc(OCCn2nnc3ccccc32)c(OC)c1
  A = -2	B = -9	C = 2	D = 3	E = -79	F = -50

3: O=[N+]([O-])c1ccc(N(CC(O)CN2CCCCC2)S(=O)(=O)c2ccccc2)cc1 (configuration not stated)
  A = 1	B = -11	C = -7	D = -3	E = 7	F = 6

4: O=C(N/N=C/c1ccc(O)cc1)c1[nH]c2ccc(Br)cc2c1-c1ccccc1
  A = 10.0*	B = ·	C = ·	D = ·	E = -9	F = 49

5: Cc1c(C(=O)N/N=C/c2ccc(Cl)cc2)[nH]c2ccc(Cl)cc12
  A = 3	B = ·	C = ·	D = ·	E = -7	F = 59*

6: O=C(NN=C1CCCC1)c1[nH]c2ccc(Cl)cc2c1-c1ccccc1
  A = 14*	B = -6	C = -1	D = 0	E = 19	F = ?

7: O=C(COc1ccc(Cl)cc1)NCCCNC(=O)c1cccnc1
  A = -3	B = -6	C = -4	D = 6	E = 4	F = -4

8: COc1ccc(/C=N/NC(=O)CCn2cnc(-c3ccccc3)c2-c2ccccc2)cc1OC
  A = ·	B = ·	C = ·	D = 65	E = -20	F = 54*

9: CC(=O)Nc1nonc1-n1nnc(C(=O)NCc2ccccc2)c1C
  A = ·	B = -6	C = -2	D = 266*	E = ·	F = ·

10: CCNC(=O)C[C@H]1CC[C@H]2[C@H](COc3ccc(NC(=O)Nc4c(C)noc4C)cc3C(=O)N2C)O1
  A = 0	B = -23	C = -5	D = 6[16.7 µM]	E = -11	F = -5

11: COc1cc(-c2noc(C)c2-c2ccc3[nH]ccc3c2)cc(OC)c1OC
  A = ·	B = -7	C = -1	D = ·	E = ·	F = ·

12: COc1cc(-c2noc(C)c2-c2ccc(N(C)C)nc2)cc(OC)c1OC
  A = 3	B = 0	C = 6	D = ·	E = -2	F = 61*

13: Cc1ccc(S(=O)(=O)N[C@@H]2C=C[C@@H](CC(=O)NCc3ccccc3F)O[C@@H]2CO)cc1
  A = -1	B = -3	C = -5	D = -7[16.7 µM]	E = -16	F = -2

14: C[C@H](CO)N1C[C@H](C)[C@H](CN(C)S(=O)(=O)c2ccccc2)Oc2ccc(NC(=O)Nc3ccc(C(F)(F)F)cc3)cc2CC1=O
  A = 4	B = ·	C = ·	D = ·	E = 10	F = 61*

15: C[C@H](CO)N1C[C@H](C)[C@H](CN(C)S(=O)(=O)c2cccs2)Oc2ccc(NC(=O)Nc3ccc(C(F)(F)F)cc3)cc2CC1=O
  A = 0	B = -5	C = 3	D = -14[16.7 µM]	E = 9	F = 56*

The list goes on.
Labels used below: A = CFTR F508del cor; B = Yeast UUG start; C = PglD DTNB; D = miR-122 sensor; E = LGR2 antag; F = EWS-Fli inh
16: C[C@@H]1CN([C@H](C)CO)C(=O)Cc2cc(NC(=O)Nc3ccc(C(F)(F)F)cc3)ccc2O[C@H]1CN(C)S(=O)(=O)c1cccs1
  A = 0	B = -4	C = -1	D = -2[16.7 µM]	E = 11	F = -5

17: Cc1ccc(S(=O)(=O)N(C)C[C@@H]2Oc3ccc(NC(=O)Nc4ccc(C(F)(F)F)cc4)cc3CC(=O)N([C@H](C)CO)C[C@@H]2C)cc1
  A = 8	B = 0	C = 5	D = 123*[16.7 µM]	E = 28	F = ?

18: C[C@@H]1CN([C@H](C)CO)C(=O)c2c(c3ccccc3n2C)-c2ccccc2CO[C@@H]1CN(C)S(=O)(=O)c1ccc(C(F)(F)F)cc1
  A = 7	B = ·	C = ·	D = ·	E = 53*	F = 9

19: Cc1ccc(S(=O)(=O)N(C)C[C@H]2Oc3ccc(NC(=O)Nc4ccc(C(F)(F)F)cc4)cc3CC(=O)N([C@H](C)CO)C[C@H]2C)cc1
  A = 4	B = 6	C = 4	D = -6[16.7 µM]	E = 1	F = 6

20: CCCCn1c(SCC(=O)Nc2cc(C)on2)nnc1-c1ccco1
  A = ·	B = -8	C = 1	D = -19	E = ·	F = ·

21: C[C@H](CO)N1C[C@H](C)[C@@H](CN(C)S(=O)(=O)c2ccc(Cl)cc2)Oc2ccc(NC(=O)CCCN(C)C)cc2CC1=O
  A = 0	B = 26	C = 8	D = -8[16.7 µM]	E = 8	F = 5

22: O=C(Nc1ccc(Br)cc1)c1cccc(OC(=S)N2CCOCC2)c1
  A = -2	B = -17	C = 1	D = -8	E = -12	F = 20

23: CN(C)CCCN(C(=O)c1cc(Cl)sc1Cl)c1nc2cc3c(cc2s1)OCO3
  A = 4	B = -2	C = -1	D = ·	E = -6	F = ·

24: CN(C)CCCN(C(=O)c1ccc(Cl)s1)c1nc2cc3c(cc2s1)OCO3
  A = 1	B = -25	C = -5	D = 6	E = 4	F = 57*

25: CN(C)CCCN(C(=O)c1cc2cc([N+](=O)[O-])ccc2s1)c1nc2cc3c(cc2s1)OCCO3
  A = 0	B = -11	C = 1	D = ·	E = -20	F = 52*

26: CN(C)CCCOC(=O)CCc1ccccc1
  A = ·	B = -14	C = 1	D = 0	E = ·	F = ·

27: Fc1ccc(C2=NN(c3ccccc3)C(c3ccco3)C2)cc1 (configuration not stated)
  A = -1	B = ·	C = ·	D = ·	E = -48	F = -5

28: O=[N+]([O-])c1ccc(/C=C/C2=NN(c3ccccc3)C(c3ccco3)C2)o1 (configuration not stated)
  A = 16*	B = ·	C = ·	D = ·	E = -30	F = 10

29: COCC#Cc1ccc([C@H]2[C@@H](CO)N3CCCCN(C(=O)NC4CCCC4)C[C@H]23)cc1
  A = -2	B = 2	C = -5	D = 12[16.7 µM]	E = -8	F = -12

30: COc1ccc(C2CC(C(F)(F)F)n3nc(C(=O)O)c(Cl)c3N2)cc1OC (configuration not stated)
  A = ·	B = 335*	C = 2	D = -3	E = ·	F = ·

Next section.
Labels used below: A = CFTR F508del cor; B = Yeast UUG start; C = PglD DTNB; D = miR-122 sensor; E = LGR2 antag; F = EWS-Fli inh
31: O=S(=O)(/N=C(/Nc1ccc(Cl)c(S(=O)(=O)N2CCOCC2)c1)c1ccc(F)cc1)c1ccccc1
  A = 0	B = 6	C = 0	D = 121*	E = 17	F = ·

32: C=CCn1c(SCC(=O)N(C)C2CCS(=O)(=O)C2)nnc1-c1ccncc1 (configuration not stated)
  A = ·	B = ·	C = ·	D = -6	E = ·	F = ·

33: O=C(Oc1ccc(C(=S)N2CCOCC2)cc1)c1cccc([N+](=O)[O-])c1
  A = ·	B = -27	C = 5	D = 1	E = 0	F = 1

34: COc1c(S(=O)(=O)NCCCn2ccnc2)ccc(Cl)c1Cl
  A = 7	B = -14	C = -1	D = 125*	E = -9	F = -5

35: COc1ccc(OC)c(NC(=O)c2cc3c(cc2Cl)N2CCCCCC2=NS3(=O)=O)c1
  A = 3	B = -16	C = 1	D = -5	E = -2	F = 2

36: Cc1ccc(S(=O)(=O)Nc2ccc(-n3cnnn3)cc2)c(C)c1
  A = -4	B = -1	C = 0	D = 149*	E = 4	F = 3

37: COc1ccccc1CNC(=O)C[C@H]1C[C@@H]2c3cc(NC(=O)CC4CC4)ccc3O[C@@H]2[C@@H](CO)O1
  A = 1	B = 30	C = -1	D = -3[16.7 µM]	E = -12	F = 5

38: C#Cc1cccc(NC(=O)Cc2cccs2)c1
  A = 2	B = -4	C = 1	D = 3	E = -10	F = -1

39: CCCCNC(=S)NNC(=O)c1c(Cl)c(C)nn1C
  A = ·	B = ·	C = ·	D = ·	E = 7	F = 71*

40: Clc1ccc(CNc2nc(N3CCOCC3)nc(N3CCOCC3)n2)cc1
  A = ·	B = -11	C = ·	D = 129*	E = ·	F = ·

41: c1ccc(CNc2nc(N3CCOCC3)nc(N3CCOCC3)n2)cc1
  A = ·	B = -14	C = 4	D = 6	E = ·	F = ·

42: COc1cccc(/C=C2\Oc3ccc(O)cc3C2=O)c1O
  A = -3	B = -74	C = -15	D = 2	E = 66*	F = -4

43: COc1ccccc1CC(=O)N1CCC(n2nccc2NC(=O)C2CCOC2)CC1 (configuration not stated)
  A = -2	B = -10	C = -3	D = -8	E = -5	F = -8

An excerpt of these results, with each value named:
[36] Cc1ccc(S(=O)(=O)Nc2ccc(-n3cnnn3)cc2)c(C)c1
- CFTR F508del cor = -4
- Yeast UUG start = -1
- PglD DTNB = 0
- miR-122 sensor = 149*
- LGR2 antag = 4
- EWS-Fli inh = 3

[37] COc1ccccc1CNC(=O)C[C@H]1C[C@@H]2c3cc(NC(=O)CC4CC4)ccc3O[C@@H]2[C@@H](CO)O1
- CFTR F508del cor = 1
- Yeast UUG start = 30
- PglD DTNB = -1
- miR-122 sensor = -3[16.7 µM]
- LGR2 antag = -12
- EWS-Fli inh = 5

[38] C#Cc1cccc(NC(=O)Cc2cccs2)c1
- CFTR F508del cor = 2
- Yeast UUG start = -4
- PglD DTNB = 1
- miR-122 sensor = 3
- LGR2 antag = -10
- EWS-Fli inh = -1
